## CycPeptMPDB entries from one study

PAMPA is the parallel artificial membrane permeability assay, which has no cells and reads passive diffusion. Caco-2 values are permeabilities across monolayers of Caco-2 human intestinal cells. Values are log10 P with P in cm/s, so -5 is more permeable than -7. Cells with "n/a" have no entry in this list.

compound | PAMPA (log10 cm/s) | Caco-2 (log10 cm/s)
CCCC[C@@H]1NC(=O)[C@H](CC(C)C)N(C)C(=O)CN(CCOC)C(=O)[C@H](C)NC(=O)CN(Cc2cc(CC(C)C)on2)C(=O)[C@H]2CCCN2C1=O | -5.52 | -6.15
CCCC[C@@H]1NC(=O)[C@H](CC(C)C)N(C)C(=O)CN(CCOc2ccccc2)C(=O)[C@H](CC(C)C)NC(=O)CN(CC)C(=O)[C@H]2CCCN2C1=O | -5.19 | n/a
CCCC[C@@H]1NC(=O)[C@H](CC(C)C)N(C)C(=O)CN(CC2CCOCC2)C(=O)[C@H](Cc2ccc3ccccc3c2)NC(=O)CN(CCC)C(=O)[C@H]2CCCN2C1=O | -5.37 | n/a
CCCC[C@@H]1NC(=O)[C@H](CC(C)C)N(C)C(=O)CN(CCCc2cnn(C)c2)C(=O)[C@H](CC(C)C)NC(=O)CN(CCCOC(C)C)C(=O)[C@H]2CCCN2C1=O | -5.43 | n/a
CCCCCN1CC(=O)N(C)[C@@H](CC(C)C)C(=O)N[C@@H](CCCC)C(=O)N2CCC[C@@H]2C(=O)N(CC(C)C)CC(=O)N[C@@H](Cc2ccc3ccccc3c2)C1=O | -8.59 | n/a
CCCC[C@@H]1NC(=O)[C@H](CC(C)C)N(C)C(=O)CN(CCc2cccnc2)C(=O)[C@H](Cc2ccccc2)NC(=O)CN(Cc2ccc(Cl)cc2)C(=O)[C@H]2CCCN2C1=O | -6.12 | n/a
CCCC[C@@H]1NC(=O)[C@H](CC(C)C)N(C)C(=O)CN(CCCc2cnn(C)c2)C(=O)[C@H](Cc2ccc3ccccc3c2)NC(=O)CN(CCN2CCOCC2)C(=O)[C@H]2CCCN2C1=O | -6.05 | n/a
CCCC[C@@H]1NC(=O)[C@H](CC(C)C)N(C)C(=O)CN(CCCc2cnn(C)c2)C(=O)[C@H](Cc2ccccc2)NC(=O)CN(CC(C)C)C(=O)[C@H]2CCCN2C1=O | -5.22 | n/a
CCCC[C@@H]1NC(=O)[C@H](CC(C)C)N(C)C(=O)CN(CC2CCOCC2)C(=O)[C@H](C)NC(=O)CN(Cc2ccccc2Cn2cccn2)C(=O)[C@H]2CCCN2C1=O | -6.67 | n/a
CCCC[C@@H]1NC(=O)[C@H](CC(C)C)N(C)C(=O)CN(CCOC)C(=O)[C@H](Cc2ccc3ccccc3c2)NC(=O)CN(CCCCc2ccccc2)C(=O)[C@H]2CCCN2C1=O | -7.74 | n/a
CCCC[C@@H]1NC(=O)[C@H](CC(C)C)N(C)C(=O)CN(CCc2cccnc2)C(=O)[C@H](CC(C)C)NC(=O)CN(Cc2ccc(Cl)cc2)C(=O)[C@H]2CCCN2C1=O | -5.36 | n/a
CCCC[C@@H]1NC(=O)[C@H](CC(C)C)N(C)C(=O)CN(CCOc2ccccc2)C(=O)[C@H](Cc2ccc3ccccc3c2)NC(=O)CN(CC)C(=O)[C@H]2CCCN2C1=O | -6.32 | n/a
CCCC[C@@H]1NC(=O)[C@H](CC(C)C)N(C)C(=O)CN(CCCc2cnn(C)c2)C(=O)[C@H](Cc2ccccc2)NC(=O)CN(CCC)C(=O)[C@H]2CCCN2C1=O | -5.43 | -5.89
CCCC[C@@H]1NC(=O)[C@H](CC(C)C)N(C)C(=O)CN(Cc2ccccc2)C(=O)[C@H](CC(C)C)NC(=O)CN(CC)C(=O)[C@H]2CCCN2C1=O | -4.99 | n/a
CCCCCN1CC(=O)N(C)[C@@H](CC(C)C)C(=O)N[C@@H](CCCC)C(=O)N2CCC[C@@H]2C(=O)N(CCCCc2ccccc2)CC(=O)N[C@@H](CC(C)C)C1=O | -6.71 | n/a
CCCC[C@@H]1NC(=O)[C@H](CC(C)C)N(C)C(=O)CN(CCCN2CCCC2=O)C(=O)[C@H](Cc2ccc3ccccc3c2)NC(=O)CN(CCN2CCOCC2)C(=O)[C@H]2CCCN2C1=O | -6.47 | n/a
CCCC[C@@H]1NC(=O)[C@H](CC(C)C)N(C)C(=O)CN(Cc2ccccc2)C(=O)[C@H](CC(C)C)NC(=O)CN(Cc2ccccc2Cn2cccn2)C(=O)[C@H]2CCCN2C1=O | -5.66 | n/a
CCCC[C@@H]1NC(=O)[C@H](CC(C)C)N(C)C(=O)CN(Cc2ccccc2)C(=O)[C@H](C)NC(=O)CN(Cc2cc(CC(C)C)on2)C(=O)[C@H]2CCCN2C1=O | -5.10 | n/a
CCCC[C@@H]1NC(=O)[C@H](CC(C)C)N(C)C(=O)CN(CCOc2ccccc2)C(=O)[C@H](Cc2ccccc2)NC(=O)CN(CCCOC(C)C)C(=O)[C@H]2CCCN2C1=O | -5.75 | n/a
CCCC[C@@H]1NC(=O)[C@H](CC(C)C)N(C)C(=O)CN(CCOc2ccccc2)C(=O)[C@H](CC(C)C)NC(=O)CN(Cc2ccc(Cl)cc2)C(=O)[C@H]2CCCN2C1=O | -7.56 | n/a

The last 2 entries again:

compound	PAMPA (log10 cm/s)	Caco-2 (log10 cm/s)
CCCC[C@@H]1NC(=O)[C@H](CC(C)C)N(C)C(=O)CN(CCOc2ccccc2)C(=O)[C@H](Cc2ccccc2)NC(=O)CN(CCCOC(C)C)C(=O)[C@H]2CCCN2C1=O	-5.75	n/a
CCCC[C@@H]1NC(=O)[C@H](CC(C)C)N(C)C(=O)CN(CCOc2ccccc2)C(=O)[C@H](CC(C)C)NC(=O)CN(Cc2ccc(Cl)cc2)C(=O)[C@H]2CCCN2C1=O	-7.56	n/a

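Lipid, pH, incubation time, direction and concentration are not recorded in the data file. The list need not hold all peptides of the study. Entries at the database's floor value (log10 P of -10) are not listed.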

Source: CycPeptMPDB (Li et al. 2023), which took these values from Furukawa et al. 2016, doi:10.1021/acs.jmedchem.6b01246.